# Screening results: PubChem BioAssay, Broad Institute
# Hits are enriched below; roughly 1.3% of the tested compounds scored in any of these assays.
# SR-BI uptake up: activators of SR-BI mediated DiI-HDL uptake, primary screen, ldlA[mSR-BI] CHO cells, DiI fluorescence. 3 h; 100 = double the neutral-control signal. activation, % at 12.5 µM. hit rate 0.096% among 320,000;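 active = mean replicate activation of at least 60% and every replicate at or above 60%; inconclusive = mean or all-replicate condition met, but not both; inactive = mean below 60% and not all replicates reaching 60%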;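 also: 0% = median plate neutral-control signal and 100% = twice that signal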
#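 Test system: SR-BI-overexpressing, LDLR-lacking CHO cells; Also added: labelled HDL, 10 µg/mL; Measured by: bottom-read cell fluorescence after medium removal, ex 550/em 595 nm; Timing: 3 h uptake period with compound, 37 °C; Buffer or medium: F12, 0.5% BSA, 25 mM HEPES; Doses: single compound concentration, delivered by pin transfer.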
# SR-BI DiI inh: inhibitors of SR-BI mediated HDL lipid uptake, primary screen, ldlA[mSR-BI] cells, fluorescence, single point; Scavenger receptor class B member 1 (Mus musculus), Q61009; ldlA[mSR-BI] CHO cells, DiI-HDL uptake fluorescence, 3 h; inhibition, % at 12.5 µM; hit rate 0.96% among 320,000;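 active = mean replicate inhibition of at least 70% and a set share of replicates each scoring 70 or more; inconclusive = meets just one of the two criteria; inactive = fails both criteria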;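 also: 0% = median of neutral control wells and 100% = median of positive control wells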
# UUG fidelity: modulators of start codon recognition fidelity in yeast | S. cerevisiae UUG-firefly luciferase reporter, luminescence/redox ratio | activity score, % at 18.7 µM | 350,000 tested, 0.13% active;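 active = replicate mean at a twofold rise or more, about +100% in these data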;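 also: firefly luciferase made from a UUG start codon reports start codon fidelity; reporter light over untreated wells divided by growth signal over untreated wells; some hits fall short of that in this replicate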
# INS-1E GSIS act: GLuc luminescence reporter in INS-1E cells, primary screen for activators of glucose-dependent secretion of insulin; INS-1E GLuc reporter insulin secretion, 2-3 h; activation, % at 16.6 µM; hit rate 0.61% among 370,000;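 active = lowest replicate activation of at least 40%, so every replicate reaches that level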;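 also: 0% = median of neutral control wells and 100% = median of IBMX positive control wells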
# DiI quench: DiI fluorescence quenching in cell-free counter-screen. shares compounds with SR-BI DiI inh. cell-free DiI-HDL fluorescence quenching, 30 min. AC50, µM (series often up to 35 µM), inactives show at the top dose activity change, negative = quenching. hit rate 20% among 470. AID 540326;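 active = quenching, a falling signal, with AC50 below a set limit tied to the top valid dose, actives reach about 32 µM in these data; inconclusive = no clear call, values can overlap the other calls; inactive = rising signal, and the rest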
# Numbers without * were called inactive; u = inconclusive; x = no result given.
SMILES,SR-BI uptake up,SR-BI DiI inh,UUG fidelity,INS-1E GSIS act,DiI quench
Cc1cc(C)cc(NC(=O)c2ccc3c(c2)CCN3S(C)(=O)=O)c1,-77,77*,-6,-10,3%
Cc1ccc(NC(=O)c2ccc3c(c2)CCN3S(C)(=O)=O)cc1,x,x,-21,x,x
Cc1ccc(NC(=O)c2ccc3c(c2)CCN3S(C)(=O)=O)cc1C,-70,u,-11,-10,0%
CC(C)C(=O)Nc1ccc2c(c1)C(=O)N(C)[C@@H]1CC[C@H](CC(=O)N[C@@H](C)c3ccccc3)O[C@@H]1CO2,x,x,15,-1,x
O=C(N[C@@H]1CC[C@H](CCNC(=O)C2CCCCC2)O[C@H]1CO)c1ccncc1,x,x,-12,14,x
N#Cc1ccc(C(=O)N2CCC3CC2c2cc(-c4ccccc4)ccc23)cc1 (stereo unspecified),-5,5,-13,-3,-3%
O=C(c1cccc(Cl)c1)N1CCC2CC1c1cc(-c3ccccc3)ccc12 (stereo unspecified),-13,13,5,-1,-5%
COC(=O)[C@@]1(Cc2ccc(F)cc2)[C@H]2c3cc(C(=O)N4CCCC4)n(CCCNc4ncc(C(F)(F)F)cc4Cl)c3C[C@H]2CN1C(=O)c1ccccc1,-30,30,-7,30,-1%
COC(=O)[C@@]1(Cc2ccc(F)cc2)[C@H]2c3cc(C(=O)N4CCCC4)n(CCF)c3C[C@H]2CN1C(=O)c1ccccc1,x,x,x,-41,x
COc1cc(NC(=O)c2cc(-c3ccccc3Cl)on2)cc(OC)c1OC,-83,83*,-25,-9,-2%
C[C@H]1CN([C@@H](C)CO)S(=O)(=O)c2ccc(-c3cccnc3)cc2O[C@@H]1CN(C)C(=O)C1CCC1,x,x,-12,0,x
Oc1csc(Cc2nc(-c3ccc4ccccc4c3)cs2)n1,-70,u,-20,x,16µM*
C[C@H]1CN([C@@H](C)CO)C(=O)Cc2cc(NC(=O)Nc3ccc(F)cc3)ccc2O[C@H]1CN(C)C(=O)Nc1ccccc1,x,x,-7,-6,x
COn1c(-c2ccccc2)nc2c1CCc1nonc1-2,8,-8,-29,x,x
c1ccc(COn2c(-c3ccccc3)nc3c2CCc2nonc2-3)cc1,-71,u,-36,x,1%
C[C@H](CO)N1C[C@H](C)[C@@H](CN(C)C(=O)Nc2ccccc2)Oc2c(NC(=O)Nc3cccc4ccccc34)cccc2C1=O,x,x,22,-11,x
CN(C)C(=O)c1ccc(-n2nc(C(F)(F)F)c3c2CCCC3)cc1,-83,83*,3,-1,-5%
O=C(c1ccc(-n2nc(C(F)(F)F)c3c2CCCC3)cc1)N1CCOCC1,-79,79*,x,-13,-1%
O=C(O)c1ccc(-n2nc(C(F)(F)F)c3c2CCCC3)cc1,14,-14,-3,17,x
CS(=O)(=O)N1CCc2cc(-c3csc(NC(=O)Cc4ccccc4)n3)ccc21,-75,u,x,-28,-2%
CC(C)C(=O)N1CCc2cc(-c3csc(N)n3)ccc21,-79,79*,-21,3,-15%
Cc1ccccc1C(=O)N1CCc2cc(-c3csc(NC(=O)CN4CCCC4)n3)ccc21,-50,50,2,-2,x
CCC(=O)N1CCc2cc(-c3csc(NC(=O)c4ccco4)n3)ccc21,-88,88*,-15,-2,-1%
CO[C@H]1CN(C)C(=O)c2cc(NC(=O)c3cnccn3)ccc2OC[C@H](C)N(C(C)=O)C[C@H]1C,x,x,-7,10,x
O=C(C[C@H]1C[C@H]2c3cc(NC(=O)C4CCC4)ccc3O[C@H]2[C@H](CO)O1)NCCN1CCCCC1,x,x,-1,7,x
CCCNC(=O)C[C@H]1CC[C@H]2[C@@H](COC[C@@H](O)CN2C(=O)Nc2c(C)noc2C)O1,x,x,3,8,x
COc1ccccc1S(=O)(=O)N(C)C[C@@H]1Oc2cc(C#CCC(C)C)ccc2S(=O)(=O)N([C@@H](C)CO)C[C@@H]1C,x,x,38,-8,x
Cc1ccc(F)cc1NC(=O)C1C2CCC(O2)C1C(=O)O (stereo unspecified),24,-24,-11,-34,-4%
O=C(OCc1ccccc1)N1CCC2CC1c1cc(-c3ccccc3)ccc12 (stereo unspecified),11,-11,-10,-2,-1%
Cc1cccc(-c2ccc3c(c2)C2CC3CCN2C(=O)OCc2ccccc2)c1 (stereo unspecified),-85,85*,-30,7,-2%
Cc1ccc(C(=O)N2CCN(c3ccc4c(c3)C3CC4CCN3C(=O)OCc3ccccc3)CC2)cc1 (stereo unspecified),x,x,-9,-12,x
C[C@H]1CN([C@@H](C)CO)C(=O)c2cccc(NC(=O)Nc3cccc4ccccc34)c2O[C@@H]1CN(C)S(=O)(=O)c1ccc(F)cc1,x,x,x,-13,x
CC(C)NC(=O)Nc1ccc2c(c1)CC(=O)N([C@@H](C)CO)C[C@H](C)[C@H](CN(C)C(=O)NC(C)C)O2,x,x,-10,14,x
COc1ccc(OC)c(Nc2cc(C)c3ccccc3n2)c1,-40,40,0,x,x
COc1ccc(OC)c(Nc2ccc(Nc3cc(OC)ccc3OC)nn2)c1,-86,86*,-12,x,5.1µM*
COc1ccc(NC(=O)Nc2ccc3c(c2)C(=O)N([C@H](C)CO)C[C@H](C)[C@H](CN(C)S(=O)(=O)c2cccs2)O3)cc1,x,x,-7,-19,x

# Quoted at random: 2 compounds from above
SMILES,SR-BI uptake up,SR-BI DiI inh,UUG fidelity,INS-1E GSIS act,DiI quench
C[C@H]1CN([C@@H](C)CO)C(=O)c2cccc(NC(=O)Nc3cccc4ccccc34)c2O[C@@H]1CN(C)S(=O)(=O)c1ccc(F)cc1,x,x,x,-13,x
CC(C)C(=O)N1CCc2cc(-c3csc(N)n3)ccc21,-79,79*,-21,3,-15%

# More compounds:
SMILES,SR-BI uptake up,SR-BI DiI inh,UUG fidelity,INS-1E GSIS act,DiI quench
CC(C)C(=O)Nc1sc2c(c1-c1nc3ccccc3[nH]1)CCCC2,-101,101*,x,x,21µM*
O=C(C1=COCCO1)N(Cc1nnc(-c2ccccc2Cl)o1)C1CC1,-75,u,-8,13,-3%
COc1ccc(S(=O)(=O)N(C)C[C@H]2OCCCC[C@H](C)Oc3ccc(NC(=O)Nc4cccc5ccccc45)cc3C(=O)N([C@H](C)CO)C[C@H]2C)cc1,x,x,-13,4,x
COc1cccc(NC(=O)N(C)C[C@H]2OCc3cnnn3CCCC(=O)N([C@@H](C)CO)C[C@H]2C)c1,x,x,x,-10,x
C[C@H](CO)N1C[C@H](C)[C@H](CN(C)S(=O)(=O)c2ccccc2)OCc2cn(nn2)CCCC1=O,x,x,x,17,x
COCC(=O)N1[C@H](CO)[C@@H](c2ccccc2)C12CN(C(=O)c1ccc(F)cc1)C2,x,x,x,8,x
O=C(Nc1cccc(Cl)c1)Nc1sccc1-c1nc2ccccc2s1,-106,106*,-4,x,11%
CCC(=O)Nc1ccc2c(c1)C(=O)N(C)C[C@H](OC)[C@H](C)CN(Cc1ccccc1)[C@@H](C)CO2,x,x,-10,0,x
CCOc1ccccc1NC(=O)C(NC(=O)C1CCC(C)CC1)C(C)C (stereo unspecified),x,x,x,11,x
CCOc1ccccc1NC(=O)C(CC(C)C)NC(=O)C1CCC(C)CC1 (stereo unspecified),-80,80*,-10,x,-3%

# At a glance, 3 of the compounds above.
SMILES,SR-BI uptake up,SR-BI DiI inh,UUG fidelity,INS-1E GSIS act,DiI quench
COc1cccc(NC(=O)N(C)C[C@H]2OCc3cnnn3CCCC(=O)N([C@@H](C)CO)C[C@H]2C)c1,x,x,x,-10,x
C[C@H](CO)N1C[C@H](C)[C@H](CN(C)S(=O)(=O)c2ccccc2)OCc2cn(nn2)CCCC1=O,x,x,x,17,x
COCC(=O)N1[C@H](CO)[C@@H](c2ccccc2)C12CN(C(=O)c1ccc(F)cc1)C2,x,x,x,8,x
